Test results: publication PMC8523698, “Preclinical characterization of an intravenous coronavirus 3CL protease inhibitor for the potential treatment of COVID19” (Nature Communications, 2021)
Values joined by “and” are separate entries in the source; they are usually repeats but may differ in a detail not shown here. Equal values may be shown once.

Tests used:
BCRP = biological target: T1, BCRP (Homo sapiens, UniProt Q9UNQ0); assay: Transporter inhibition using membrane vesicles; details: uptake of rosuvastatin by BCRP, single replicates
T1 sequence (Q9UNQ0 1-655): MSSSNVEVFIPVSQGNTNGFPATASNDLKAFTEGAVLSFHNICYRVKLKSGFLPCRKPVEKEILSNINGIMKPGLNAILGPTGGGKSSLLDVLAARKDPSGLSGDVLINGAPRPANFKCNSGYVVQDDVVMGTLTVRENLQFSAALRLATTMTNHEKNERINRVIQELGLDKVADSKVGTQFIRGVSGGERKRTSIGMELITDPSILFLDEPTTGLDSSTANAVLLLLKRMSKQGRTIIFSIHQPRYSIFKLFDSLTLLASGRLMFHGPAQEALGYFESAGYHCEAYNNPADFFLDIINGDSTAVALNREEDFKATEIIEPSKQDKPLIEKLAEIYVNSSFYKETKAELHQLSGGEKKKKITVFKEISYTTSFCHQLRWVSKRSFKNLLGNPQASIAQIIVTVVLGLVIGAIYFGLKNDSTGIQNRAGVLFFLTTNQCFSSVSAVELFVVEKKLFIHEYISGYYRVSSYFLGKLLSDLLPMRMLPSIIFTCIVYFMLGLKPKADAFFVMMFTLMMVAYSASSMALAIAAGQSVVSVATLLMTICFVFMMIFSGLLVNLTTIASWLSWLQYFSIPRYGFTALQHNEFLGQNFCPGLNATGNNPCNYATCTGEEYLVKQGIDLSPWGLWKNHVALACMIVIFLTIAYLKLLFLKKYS

OAT3 = biological target: T2, OAT3 (Homo sapiens, UniProt Q8TCC7); assay: Transporter inhibition using transfected HEK293 cells; details: uptake of [3H]-ES by OAT3
T2 sequence (Q8TCC7 1-542): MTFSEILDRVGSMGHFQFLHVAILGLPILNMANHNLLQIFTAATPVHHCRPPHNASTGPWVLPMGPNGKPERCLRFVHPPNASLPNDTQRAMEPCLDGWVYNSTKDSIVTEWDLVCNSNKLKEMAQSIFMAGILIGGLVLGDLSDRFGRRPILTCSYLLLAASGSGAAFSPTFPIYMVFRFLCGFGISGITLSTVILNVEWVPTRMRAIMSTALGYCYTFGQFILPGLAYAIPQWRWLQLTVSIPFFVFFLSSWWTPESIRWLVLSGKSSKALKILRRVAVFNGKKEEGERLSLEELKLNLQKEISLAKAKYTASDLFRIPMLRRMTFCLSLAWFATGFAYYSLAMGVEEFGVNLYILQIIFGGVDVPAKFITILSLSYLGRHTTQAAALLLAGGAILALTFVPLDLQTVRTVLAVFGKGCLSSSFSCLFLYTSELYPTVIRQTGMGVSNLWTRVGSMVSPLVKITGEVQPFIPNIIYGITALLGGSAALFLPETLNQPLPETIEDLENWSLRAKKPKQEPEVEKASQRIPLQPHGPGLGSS

OAT1 = biological target: T3, OAT1 (Homo sapiens, UniProt Q4U2R8); assay: as above; details: uptake of [3H]-PAH by OAT1
T3 sequence (Q4U2R8 1-563): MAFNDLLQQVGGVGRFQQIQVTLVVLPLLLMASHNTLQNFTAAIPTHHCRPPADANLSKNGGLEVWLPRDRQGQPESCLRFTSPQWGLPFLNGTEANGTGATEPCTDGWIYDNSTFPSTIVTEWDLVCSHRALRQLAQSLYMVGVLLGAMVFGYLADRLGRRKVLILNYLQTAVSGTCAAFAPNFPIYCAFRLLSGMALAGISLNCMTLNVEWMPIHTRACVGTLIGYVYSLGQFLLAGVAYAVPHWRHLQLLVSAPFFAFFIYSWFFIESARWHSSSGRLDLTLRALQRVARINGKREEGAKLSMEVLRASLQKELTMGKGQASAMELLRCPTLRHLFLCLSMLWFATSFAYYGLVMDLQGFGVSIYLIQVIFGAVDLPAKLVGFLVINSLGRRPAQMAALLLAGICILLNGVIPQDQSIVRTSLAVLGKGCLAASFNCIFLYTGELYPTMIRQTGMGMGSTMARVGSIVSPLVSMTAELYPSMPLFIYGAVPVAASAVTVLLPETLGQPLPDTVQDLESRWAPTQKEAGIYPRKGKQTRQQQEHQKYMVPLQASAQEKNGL

OCT1 = biological target: T4, OCT1 (Homo sapiens, UniProt O15245); assay: as above; type: in vitro ADME; details: uptake of [14C]-metformin by OCT1, single replicates
T4 construct: expressed in transfected cells; host or cells: HEK293
T4 sequence (O15245 1-554): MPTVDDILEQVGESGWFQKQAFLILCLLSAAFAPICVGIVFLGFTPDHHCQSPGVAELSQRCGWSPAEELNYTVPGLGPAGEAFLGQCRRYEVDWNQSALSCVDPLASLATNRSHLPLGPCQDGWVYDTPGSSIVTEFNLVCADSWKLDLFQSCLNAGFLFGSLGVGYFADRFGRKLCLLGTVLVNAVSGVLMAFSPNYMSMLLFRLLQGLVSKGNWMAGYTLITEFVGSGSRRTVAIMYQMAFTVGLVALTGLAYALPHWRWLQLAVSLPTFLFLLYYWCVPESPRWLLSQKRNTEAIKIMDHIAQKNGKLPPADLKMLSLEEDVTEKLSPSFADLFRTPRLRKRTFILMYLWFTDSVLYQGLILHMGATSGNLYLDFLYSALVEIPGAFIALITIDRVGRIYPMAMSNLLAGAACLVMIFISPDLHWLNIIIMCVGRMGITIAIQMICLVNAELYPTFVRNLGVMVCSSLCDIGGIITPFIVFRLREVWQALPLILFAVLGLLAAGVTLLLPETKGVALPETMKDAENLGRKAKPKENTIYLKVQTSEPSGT

[1] = inhibitor concentration 0.0732 uM
[2] = inhibitor concentration 4.6875 uM
[3] = inhibitor concentration 18.7500 uM
[4] = inhibitor concentration 300.0000 uM
[5] = inhibitor concentration 0.2930 uM
[6] = inhibitor concentration 1.1719 uM

Row | SMILES | % BCRP Uptake Activity (BCRP; [1]) | % BCRP Uptake Activity (BCRP; [2]) | % BCRP Uptake Activity (BCRP; [3]) | % BCRP Uptake Activity (BCRP; [4]) | % Uptake Activity (OAT3; inhibitor 0.0732 uM) | CPM (OAT3; inhibitor 0.0732 uM) | CPM (OAT3; inhibitor 0.2930 uM) | % Uptake Activity (OAT3; inhibitor 1.1719 uM) | CPM (OAT3; inhibitor 1.1719 uM) | % Uptake Activity (OAT3; inhibitor 4.6875 uM) | CPM (OAT3; inhibitor 4.6875 uM) | % Uptake Activity (OAT3; inhibitor 18.7500 uM) | CPM (OAT3; inhibitor 18.7500 uM) | % Uptake Activity (OAT3; inhibitor 300.0000 uM) | CPM (OAT3; inhibitor 300.0000 uM) | % Uptake Activity (OAT1; inhibitor 0.0732 uM) | CPM (OAT1; inhibitor 0.0732 uM) | % Uptake Activity (OAT1; inhibitor 0.2930 uM) | CPM (OAT1; inhibitor 0.2930 uM) | % Uptake Activity (OAT1; inhibitor 1.1719 uM) | also measured
1 | COc1cccc2[nH]c(C(=O)N[C@@H](CC(C)C)C(=O)N[C@@H](C[C@@H]3CCNC3=O)C(=O)CO)cc12 [PF-00835231] | 87.6061% and 75.0021% | 70.5907% and 67.4397% and 66.8095% | 41.2864% and 39.0177% and 40.1521% | 1.13% and 1.25% and 2.277% | 89.07% and 88.76% | 5417 CPM and 5399 CPM and 5694 CPM | 6277 CPM and 5903 CPM and 6132 CPM | 94.53% and 89.93% | 5734 CPM and 5467 CPM and 5478 CPM | 106.21% and 101.51% and 106.50% | 6412 CPM and 6139 CPM and 6429 CPM | 107.64% and 108.48% | 6311 CPM and 6495 CPM and 6544 CPM | 77.29% and 78.84% | 4733 CPM and 5007 CPM and 4823 CPM | 96.00% and 98.99% | 2224 CPM and 2292 CPM and 2286 CPM | 103.39% and 108.63% | 2398 CPM and 2392 CPM and 2511 CPM | 96.00% and 102.07% | % Uptake Activity (OAT3; inhibitor 0.2930 uM): 97.44%; CPM (OAT1; inhibitor 1.1719 uM): 2224 CPM and 2335 CPM and 2362 CPM; % Uptake Activity (OAT1; inhibitor 4.6875 uM): 99.35% and 109.07%; CPM (OAT1; inhibitor 4.6875 uM): 2417 CPM and 2300 CPM and 2521 CPM; % Uptake Activity (OAT1; inhibitor 18.7500 uM): 106.08% and 107.04%; CPM (OAT1; inhibitor 18.7500 uM): 2453 CPM and 2432 CPM and 2475 CPM; % Uptake Activity (OAT1; inhibitor 300.0000 uM): 92.62% and 96.18% and 91.21%; CPM (OAT1; inhibitor 300.0000 uM): 2147 CPM and 2228 CPM and 2115 CPM; % Uptake Activity (OCT1; [1]): 106.96%; % Uptake Activity (OCT1; [5]): 105.99% and 111.95% and 107.52%; % Uptake Activity (OCT1; [6]): 95.32%; % Uptake Activity (OCT1; [2]): 99.34% and 96.29%; % Uptake Activity (OCT1; [3]): 62.28% and 65.95% and 66.02%; % Uptake Activity (OCT1; [4]): 14.55% and 14.34% and 14.96%
2 | COc1cccc2[nH]c(C(=O)N[C@@H](CC(C)C)C(=O)N[C@@H](C[C@@H]3CCNC3=O)C(=O)COP(=O)(O)O)cc12 [PF-07304814] | 77.5229% and 85.7155% and 80.6739% | 91.3873% and 117.225% and 86.9759% | 86.9759% and 92.0175% | 32.6527% and 38.5136% and 39.6479% | 90.43% and 87.63% and 87.56% | 5496 CPM and 5333 CPM and 5329 CPM | 6344 CPM and 6124 CPM and 6271 CPM | 95.24% and 92.22% and 99.27% | 5775 CPM and 5600 CPM and 6009 CPM | 114.18% and 108.98% and 107.36% | 6875 CPM and 6573 CPM and 6479 CPM | 117.49% and 111.56% and 110.48% | 7067 CPM and 6723 CPM and 6660 CPM | 91.64% | 5566 CPM and 5934 CPM and 5704 CPM | 95.69% | 2351 CPM and 2203 CPM and 2217 CPM | 105.64% and 99.21% | 2443 CPM and 2297 CPM and 2375 CPM | 97.63% | % BCRP Uptake Activity (BCRP; [6]): 61.2007% and 79.4135% and 87.6061%; CPM (OAT1; inhibitor 1.1719 uM): 2265 CPM and 2261 CPM and 2365 CPM; % Uptake Activity (OAT1; inhibitor 4.6875 uM): 105.94%; CPM (OAT1; inhibitor 4.6875 uM): 2450 CPM and 2375 CPM and 2370 CPM; CPM (OAT1; inhibitor 18.7500 uM): 2434 CPM and 2427 CPM and 2394 CPM; CPM (OAT1; inhibitor 300.0000 uM): 2140 CPM and 2162 CPM and 2113 CPM; % Uptake Activity (OCT1; [1]): 107.03% and 99.34% and 105.72%; % Uptake Activity (OCT1; [5]): 114.31%; % Uptake Activity (OCT1; [6]): 97.68% and 94.70%; % Uptake Activity (OCT1; [2]): 106.96%; % Uptake Activity (OCT1; [3]): 94.56% and 92.76% and 89.50%; % Uptake Activity (OCT1; [4]): 76.55% and 79.04% and 87.08%
